{"source": "PubChem BioAssay AID2690", "about": "(NMMLSC, 2010)", "note": "The entries are a selection whose mix differs from that of the whole data set. Some of these compounds have results that are not shown, active ones among them. Calls of active or inactive are those of the source.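 How the source made its calls: active means superoxide response under a set limit, about three screen SD below normal (cut at about 65% in these data); inactive means the rest.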"}
{"test": "yeast aging ROS inhibitors as calorie-restriction mimetics – HTS, primary screen (AID 2690);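 further: yeast aged for seven days with compound at 30 °C before DHE staining; 100% = average MFI of all compound-treated wells on the plate with controls excluded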", "conditions": "S. cerevisiae aged cells, superoxide DHE fluorescence; at 10 µM; stronger effect = lower value"}
{"compound": "Cc1ccc(C(=O)NCC2(N3CCCCC3)CCCCC2)cc1", "superoxide response (% of plate mean)": "inactive: 85.5%"}
{"compound": "COc1cc(SC)ccc1C(=O)NCC1(N(C)C)CCCCC1", "superoxide response (% of plate mean)": "inactive: 91%"}
{"compound": "CCN(CC)CC(C)C(C)OC(=O)C(O)(c1ccccc1)c1ccccc1", "note": "(centres undefined)", "superoxide response (% of plate mean)": "inactive: 94.6%"}
{"compound": "CC(C)N1C(=O)CC2(CCN(CCOC(=O)C(O)(c3ccccc3)c3ccccc3)CC2)C1=O", "superoxide response (% of plate mean)": "inactive: 91.2%"}
{"compound": "CN1[C@@H]2CC[C@H]1CC(OC(=O)C(O)(c1ccccc1)c1ccccc1)C2", "note": "(some centres undefined)", "superoxide response (% of plate mean)": "inactive: 101%"}
{"compound": "O=C(NCC1(N2CCCCC2)CCCCC1)c1cc([N+](=O)[O-])ccc1Cl", "superoxide response (% of plate mean)": "inactive: 105%"}
{"compound": "COc1ccc(C(=O)NCC2(N(C)C)CCCCC2)cc1", "superoxide response (% of plate mean)": "inactive: 112%"}
{"compound": "O=C(NCC1(N2CCCCC2)CCCCC1)c1cccc(Br)c1", "superoxide response (% of plate mean)": "inactive: 85.5%"}
{"compound": "Cc1cc(C(=O)NCC2(N3CCCCC3)CCCCC2)ccc1[N+](=O)[O-]", "superoxide response (% of plate mean)": "inactive: 112%"}
{"compound": "CCN1CCCC(OC(=O)C2(O)c3ccccc3C=Cc3ccccc32)C1", "note": "(centres undefined)", "superoxide response (% of plate mean)": "inactive: 109%"}
{"compound": "O=C(NCC1(N2CCCCC2)CCCCC1)c1cc(F)c(F)cc1Cl", "superoxide response (% of plate mean)": "inactive: 106%"}
{"compound": "C=CCN1CCN(CCOC(=O)C(O)(c2ccccc2)c2ccccc2)CC1", "superoxide response (% of plate mean)": "inactive: 99.3%"}
{"compound": "CN(C)C1CCCC1OC(=O)C(O)(c1ccccc1)c1ccccc1", "note": "(centres undefined)", "superoxide response (% of plate mean)": "inactive: 94.8%"}
{"compound": "CN(C)c1ccc(C(=O)NCC2(N(C)C)CCCCC2)cc1", "superoxide response (% of plate mean)": "inactive: 91.1%"}
{"compound": "Cc1ccccc1C(=O)NCC1(N2CCCCC2)CCCCC1", "superoxide response (% of plate mean)": "inactive: 88.2%"}
{"compound": "O=C(NCC1(N2CCCCC2)CCCCC1)c1cccc(Cl)c1", "superoxide response (% of plate mean)": "inactive: 98.4%"}
{"compound": "COc1ccc(Cl)cc1C(=O)NCC1(N(C)C)CCCCC1", "superoxide response (% of plate mean)": "inactive: 105%"}
{"compound": "COc1cccc(C(=O)NCC2(N3CCCCC3)CCCCC2)c1", "superoxide response (% of plate mean)": "inactive: 101%"}
{"compound": "COc1cc(C(=O)NCC2(N(C)C)CCCCC2)c([N+](=O)[O-])cc1OC", "superoxide response (% of plate mean)": "active: 42%"}
{"compound": "CN(C)C1(CNC(=O)c2ccc(Br)cc2)CCCCC1", "superoxide response (% of plate mean)": "inactive: 96%"}
{"compound": "CC(C)Oc1ccc(C(=O)NCC2(N(C)C)CCCCC2)cc1", "superoxide response (% of plate mean)": "inactive: 109%"}
{"compound": "CN(C)c1cccc(C(=O)NCC2(N(C)C)CCCCC2)c1", "superoxide response (% of plate mean)": "inactive: 80.3%"}
{"compound": "COc1ccc(Br)c(C(=O)NCC2(N3CCCCC3)CCCCC2)c1", "superoxide response (% of plate mean)": "inactive: 93.1%"}
{"compound": "O=C(OC1CN2CCC1CC2)C(CO)(c1ccccc1)c1ccccc1", "note": "(centres undefined)", "superoxide response (% of plate mean)": "inactive: 99.4%"}
